This is an account of results in PubChem BioAssay AID463254 (National Center for Advancing Translational Sciences (NCATS), 2010).

Chains of the proteins cited; added tags and fusions are not shown. Lines headed by an entry give the natural chain unless they say otherwise; changes in a name come on top.
UniProt O75604: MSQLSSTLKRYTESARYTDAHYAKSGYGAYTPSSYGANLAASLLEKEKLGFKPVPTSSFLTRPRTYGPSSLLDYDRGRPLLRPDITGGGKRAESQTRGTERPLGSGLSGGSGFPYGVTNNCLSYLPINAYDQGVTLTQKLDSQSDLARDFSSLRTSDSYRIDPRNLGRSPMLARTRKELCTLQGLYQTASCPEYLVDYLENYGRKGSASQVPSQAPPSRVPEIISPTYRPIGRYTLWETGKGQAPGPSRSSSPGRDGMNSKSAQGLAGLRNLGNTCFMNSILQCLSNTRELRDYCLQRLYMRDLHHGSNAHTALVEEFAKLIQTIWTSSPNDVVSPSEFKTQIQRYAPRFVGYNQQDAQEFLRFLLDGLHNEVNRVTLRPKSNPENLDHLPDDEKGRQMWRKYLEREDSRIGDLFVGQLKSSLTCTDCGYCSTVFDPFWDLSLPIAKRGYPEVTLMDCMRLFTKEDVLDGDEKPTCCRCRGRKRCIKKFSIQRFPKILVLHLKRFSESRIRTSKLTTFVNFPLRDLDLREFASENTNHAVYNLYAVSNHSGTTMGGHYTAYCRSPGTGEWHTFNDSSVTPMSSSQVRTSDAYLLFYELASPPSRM

The structures appear in SMILES notation. This is a selection; strong and weak results do not stand in their true shares. Activity calls are given as the source filed them. Calls follow the shape of the dose curve; as a rule, active = well fitted inhibition curve with a large enough effect; inconclusive = small, poorly fitted or top-dose-only effect, or effect the other way; inactive = flat fitted curve, though single readings scatter.

For the assay, the target named is Ubiquitin carboxyl-terminal hydrolase 2 (Homo sapiens) (UniProt O75604). Put plainly: qHTS Assay for Inhibitors of Ubiquitin-specific Protease USP2a Using CHOP2 as the Reporter. The note with it: USP2 core, Ub-CHOP2 coupled fluorogenic reporter, 485/531; at 38.3 µM (top of the series). An excerpt: NIH Molecular Libraries Screening Centers Network [MLSCN] NIH Chemical Genomics Center [NCGC] MLSCN Grant: XO1-MH079852-01 PI Name: Nicholson, Ben. Progenra Inc, Malvern, PA NCGC Assay Overview: Homeostasis of cellular proteins is maintained through a combination of synthesis and degradation. The pathway that accounts for the majority of protein degradation is the ubiquitin-proteasomal pathway. Ubiquitin (Ub) is highly conserved in all cells and the generation of a multi-Ub chain typically targets proteins for degradation by the proteasome. However, ubiquitination is highly reversible and dynamic. Deubiquitination, the reverse process, is catalyzed through the action of enzymes referred to as isopeptidases or deubiquitinating enzymes (DUBs). This group of enzymes is collectively responsible for maintaining adequate pools of free ubiquitin and regulating the ubiquitination status of cellular proteins. The class of DUBs referred to as the ubiquitin-specific proteases (USP) family functions endoproteolytically to cleave Ub chains from a wide range of protein substrates. USP2a deubiquitinates fatty acid synthase (FASN) which has recently been identified as an emerging oncology target. To identify inhibitors of USP2a a cell-free assay was employed. […] The reporter enzyme chosen is an enterokinase called CHOP2, which is activated when the Ub is cleaved by USP2. The free and now activated reporter can subsequently act on its reporter substrate. Thus, this coupled assay gives a fluorescent read-out at excitation/emission wavelengths of 485/531. The assay was developed by Progenra, Inc. and has been licensed for sale by LifeSensors, Inc. as Ub-CHOP2-Reporter-Kit (#PR1101).
NCGC Assay Protocol Summary: The assay buffer, prepared fresh at the day of the assay, contains 20mM Tris-HCl pH 8.0, 2mM CaCl2, 2mM beta-Mercaptoethanol, 0.05% CHAPS. 3ul of 20nM (10nM final) USP2 core, which is stored on ice, is dispensed into a medium-binding black solid Kalypsys 1,536 well plate using the Kalypsys dispenser. The assay plate is then pinned with 23nL compound with the Kalypsys pintool in columns 5-48. The controls are pinned as follows: column 1 two-fold dilutions of 2M NEM in duplicate; column 2 2M NEM (final concentration 38.2mM); column 3&4 DMSO. The assay plate is incubated at RT for 30min. Subsequently, 1.5uL of 100nM (25nM final) Ub-CHOP2 and 1.5uL of 100nM (25nM final) Reporter Substrate (both stored on ice and protected from light) were dispensed into the plate using the Kalypsys dispenser. Plates were read after 60min RT incubation on a ViewLux (Perkin Elmer) plate reader using the following wavelengths Ex 485nm /Em 531nm. Data were normalized to the to AC100 inhibition (NEM). Concentration-response curves were fitted to the normalized data and the concentration-response curves were then classified based on curve quality (r2), response magnitude and degree of measured activity. The time zero reading was used to flag fluorescence artifacts. Keywords: ubiquitination, deubiquitination, proteases, profluorescent, MLSMR, MLPCN, NIH Roadmap, qHTS, NCGC
On the technique in general: Quantitative high-throughput screening tests each substance at several concentrations.
As to `O=[N+]([O-])c1cc([N+](=O)[O-])c(CCNc2ccccc2)c([N+](=O)[O-])c1`, the activity change, negative = inhibition is inactive: 3.25%. `CCc1nc2c(n1)c1c(non1O)c1c2no[n+]1[O-]`: the activity change, negative = inhibition was inactive: 3.48%. In the case of `COc1ccc(C2=NCC(CBr)S2)cc1` (stereo not given) it was inactive: -2.97%. For `O=[N+]([O-])c1cccc(NC2=NCC(CBr)S2)c1` (stereo not given) the value was inactive: -1.63%.

`O=C(O)CNc1ccc([As](=O)(O)O)cc1`: the activity change, negative = inhibition was inactive: 0.33%. In the case of `CC(C)(C)C(=O)NC(Sc1ccncn1)C(Cl)(Cl)Cl` (stereo not given) it was inactive: 1.34%; in that of `O=[N+]([O-])c1ncn(CCn2ncnc2[N+](=O)[O-])n1`, inactive: 5.19%; in that of `O=C(Nc1cc([As](=O)(O)O)ccc1O)c1ccccc1`, inactive: 0.421%.

As to `C(Cc1nn[nH]n1)Cc1nn[nH]n1`, the activity change, negative = inhibition is inactive: 0.315%. For `Nc1ccc([As](=O)(O)c2ccc([N+](=O)[O-])cc2)cc1` the value was inactive: 0.244%; for `O=C(OC1CN2CCC1CC2)c1cccc(Cl)c1` (stereo not given), inactive: 0.623%. Turning to `CC(=O)NC(SC(=S)N(C)C)C(Cl)(Cl)Cl` (stereo not given), the activity change, negative = inhibition was inactive: 0.735%. Regarding `O=[N+]([O-])c1ncn(CCn2cnc([N+](=O)[O-])n2)n1`, the activity change, negative = inhibition was inactive: 1.53%. Regarding `O=[N+]([O-])c1ccc(O)c(/C=N/Nc2ccc([N+](=O)[O-])cc2[N+](=O)[O-])c1`, the activity change, negative = inhibition is inactive: -0.895%. For `O=[As](O)(c1ccccc1)c1ccc(O)cc1` the value was inactive: 1.25%; for `O=P(Nc1nc2ccccc2s1)(c1ccccc1)c1ccccc1`, inactive: 2.95%. For the compound `C[C@H]1OP(=O)(Oc2ccccc2)[C@H](O)[C@H](O)[C@H]1N=[N+]=[N-]` (stereo not given in full), the activity change, negative = inhibition is inactive: 2.59%. Consider `CN(C)C1(CNC(=O)c2ccc(Cl)c(S(N)(=O)=O)c2)CCCCC1`, for which the activity change, negative = inhibition was inactive: 2.97%. As to `O=P(Nc1ccccn1)(c1ccc(Br)cc1)c1ccc(Br)cc1`, the activity change, negative = inhibition was inactive: -5.34%. With `c1nnnn1CCn1cnnn1`, the activity change, negative = inhibition was inactive: -1.63%. For the compound `O=P(Nc1nccs1)(c1ccccc1)c1ccccc1`, the activity change, negative = inhibition is inactive: -4.44%.

Consider `CC(C)C(=O)NC(Sc1ccccc1)C(Cl)(Cl)Cl` (stereo not given), for which the activity change, negative = inhibition is inactive: 2.76%. For the compound `CC(=O)Nc1ccc([As](=O)(O)O)c(O)c1`, the activity change, negative = inhibition is inactive: -1.03%. For `CC(=O)Nc1ccc(Oc2c([N+](=O)[O-])cc([N+](=O)[O-])cc2[N+](=O)[O-])cc1` the value was inactive: -0.949%. For `CC(=O)c1ccc(N2CC2c2ccncc2)cc1` (stereo not given), the activity change, negative = inhibition is inactive: 3.61%.

For `Cc1ccccc1CN(C)C(=O)COC(=O)C(O)(c1ccccc1)c1ccccc1`, the activity change, negative = inhibition was inactive: -6.16%. `C[C@H]1OP(=O)(Oc2ccccc2)C[C@@H]2O[C@@H]21` (stereo not given in full): the activity change, negative = inhibition is inactive: 0.0696%. For `C[C@@H]1C=CCP(=O)(Oc2ccccc2)O1` (stereo not given in full) the value was inactive: -0.334%; for `CC(C)(C)C(=O)NC(Sc1ccccc1)C(Cl)(Cl)Cl` (stereo not given), inactive: 2.05%; for `O=P1(Nc2nc3ccc(Cl)cc3s2)COc2ccccc2O1` (stereo not given), inactive: 0.174%. `CCOc1ccc(C2=NCC(CBr)S2)cc1` (stereo not given): the activity change, negative = inhibition is inactive: 0.644%. `CC(NC(=O)COC(=O)C(O)(c1ccccc1)c1ccccc1)c1ccccc1` (stereo not given): the activity change, negative = inhibition is inactive: 1.57%.

Regarding `Cc1ccccc1OP(=O)(Nc1ccccn1)Oc1ccccc1C`, the activity change, negative = inhibition is inactive: -1.43%. Consider `O=c1c2cc([N+](=O)[O-])ccc2[nH]c2c([N+](=O)[O-])cc([N+](=O)[O-])cc12`, for which the activity change, negative = inhibition was inactive: -0.629%. Turning to `CN(C)C(=O)Oc1noc2ccccc12`, the activity change, negative = inhibition is inactive: 0.433%. Take `COC(=O)c1cc2c(s1)N=C(c1ccccc1)N(C)P2(=O)N1CCOCC1` (stereo not given): the activity change, negative = inhibition was inactive: -0.497%. In the case of `CC(=O)NC(SC(=S)N(CC(C)C)CC(C)C)C(Cl)(Cl)Cl` (stereo not given) it was inactive: 9.85%; in that of `Cc1ccc(OP(=O)(Nc2ccccn2)Oc2ccc(C)cc2)cc1`, inactive: -3.43%; in that of `O=C(OC1CN2CCC1CC2)c1ccccc1` (stereo not given), inactive: -7.54%. In the case of `CCC(=O)N1C2C3N(C(=O)CC)C1C1N(C(=O)CC)C(C(N1C(=O)CC)N3C(=O)CC)N2C(=O)CC` it was inactive: -0.254%; in that of `O=C(NC1CCS(=O)(=O)C1)NP(=S)(Oc1ccccc1)Oc1ccccc1` (stereo not given), inactive: 0.136%; in that of `CCNC(=S)/N=C(\N)N[N+](=O)[O-]`, inactive: 2.32%. For `c1ccc(-c2nn[nH]n2)c(-c2nn[nH]n2)c1` the value was inactive: -1.48%; for `Cc1ccc(NP(=O)(Oc2cccc(C)c2)Oc2cccc(C)c2)nc1`, inactive: 2.69%; for `CCOC(=O)NC(Sc1ccccc1)C(Cl)(Cl)Cl` (stereo not given), inactive: 3.78%.
